# From PubChem BioAssay AID1910 (Broad Institute, 2009)
# Only a part is listed here, and it is no random draw. Calls of active or inactive are those of the source.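 How the source made its calls: active means mean activation of at least 10% of the iron chelator positive control signal, with at least half of replicates also reaching 10%; inconclusive means mean and replicate majority disagree about reaching 10%; inactive means mean and most replicates under 10%.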
# Test: HIF pathway transcriptional activators, primary screen, cell-based, U2OS HRE-luciferase, luminescence (AID 1910)
# Details: U2OS HRE-luciferase reporter, hits give high values, screened at 7.5 µM (by protocol), normalized: DMSO 0%, desferrioxamine 100%
row,SMILES,activation
1,CC(C)=N/N=C(\N)N[N+](=O)[O-],inactive: -0.246%
2,CCN(/C(=N/P(=O)(N1CCOCC1)N1CCOCC1)N1CCOCC1)c1ccc(OC)cc1,inactive: 0.0401%
3,C[N+]1=C2C=CC=CC=C2SC12C([N+](=O)[O-])=CC([N+](=O)[O-])=C[C-]2[N+](=O)[O-] (stereo not drawn),inactive: 1.76%
4,Nc1ccc([As](=O)(O)c2ccc(N)cc2)cc1,inactive: -0.416%
5,O=[N+]([O-])c1cc([N+](=O)[O-])c(CCNc2ccccc2)c([N+](=O)[O-])c1,inactive: -0.643%
6,CCc1nc2c(n1)c1c(non1O)c1c2no[n+]1[O-],inactive: 4.3%
7,Cc1ccc(NP(=O)(Oc2ccccc2)Oc2ccccc2)nc1,inactive: 0.508%
8,CC(=O)N1C2C3N(C(C)=O)C1C1N(C(C)=O)C(C(N1C(C)=O)N3C(C)=O)N2C(C)=O,inactive: 0.101%
9,O=[N+]([O-])c1cccc2n[nH]nc12,inactive: -2.21%
10,COc1ccc(C2=NCC(CBr)S2)cc1 (stereo not drawn),inactive: -0.261%
11,c1nnnn1CCn1cnnn1,inactive: 0.377%
12,O=P(Nc1nccs1)(c1ccccc1)c1ccccc1,inactive: -0.067%
13,CC(C)C(=O)NC(Sc1ccccc1)C(Cl)(Cl)Cl (stereo not drawn),inactive: -0.0639%
14,O=C(OC1CN2CCC1CC2)c1cccc(Cl)c1 (stereo not drawn),inactive: -0.152%
15,Nc1ccc([As](=O)(O)c2ccc([N+](=O)[O-])cc2)cc1,inactive: -0.278%
16,C(Cc1nn[nH]n1)Cc1nn[nH]n1,inactive: 0.0121%
17,O=[As](O)(c1ccccc1)c1ccc(O)cc1,inactive: -0.241%
18,O=[N+]([O-])c1ncn(CCn2cnc([N+](=O)[O-])n2)n1,inactive: -0.156%
19,CC(=O)NC(SC(=S)N(C)C)C(Cl)(Cl)Cl (stereo not drawn),inactive: 0.0694%
20,O=[N+]([O-])c1ccc(O)c(/C=N/Nc2ccc([N+](=O)[O-])cc2[N+](=O)[O-])c1,inactive: 0.139%
21,C[C@H]1OP(=O)(Oc2ccccc2)[C@H](O)[C@H](O)[C@H]1N=[N+]=[N-] (stereo partly drawn),inactive: 0.0986%
22,O=P(Nc1nc2ccccc2s1)(c1ccccc1)c1ccccc1,inactive: 0.416%
23,CN(C)C1(CNC(=O)c2ccc(Cl)c(S(N)(=O)=O)c2)CCCCC1,inactive: 1.09%
24,O=P(Nc1ccccn1)(c1ccc(Br)cc1)c1ccc(Br)cc1,inactive: -0.15%
25,CN(C)C(=O)Oc1noc2ccccc12,inactive: -0.288%

row,SMILES,activation
1,Cc1ccccc1OP(=O)(Nc1ccccn1)Oc1ccccc1C,inactive: -0.0794%
2,CCC(=O)N1C2C3N(C(=O)CC)C1C1N(C(=O)CC)C(C(N1C(=O)CC)N3C(=O)CC)N2C(=O)CC,inactive: -0.0106%
3,O=C(OC1CN2CCC1CC2)c1ccccc1 (stereo not drawn),inactive: -10.8%
4,Cc1ccc(OP(=O)(Nc2ccccn2)Oc2ccc(C)cc2)cc1,inactive: 0.47%
5,CC(=O)NC(SC(=S)N(CC(C)C)CC(C)C)C(Cl)(Cl)Cl (stereo not drawn),inactive: 0.0515%
6,COC(=O)c1cc2c(s1)N=C(c1ccccc1)N(C)P2(=O)N1CCOCC1 (stereo not drawn),inactive: -0.192%
7,CCOC(=O)NC(Sc1ccccc1)C(Cl)(Cl)Cl (stereo not drawn),inactive: -0.152%
8,Cc1ccc(NP(=O)(Oc2cccc(C)c2)Oc2cccc(C)c2)nc1,inactive: 0.795%
9,c1ccc(-c2nn[nH]n2)c(-c2nn[nH]n2)c1,inactive: -0.387%
10,O=C(NC1CCS(=O)(=O)C1)NP(=S)(Oc1ccccc1)Oc1ccccc1 (stereo not drawn),inactive: -0.211%
11,CCNC(=S)/N=C(\N)N[N+](=O)[O-],inactive: -0.428%
12,CC(=O)Nc1ccc(Oc2c([N+](=O)[O-])cc([N+](=O)[O-])cc2[N+](=O)[O-])cc1,inactive: -0.185%
13,CC(=O)Nc1ccc([As](=O)(O)O)c(O)c1,inactive: -0.158%
14,C[C@@H]1C=CCP(=O)(Oc2ccccc2)O1 (stereo partly drawn),inactive: 0.132%
15,C[C@H]1OP(=O)(Oc2ccccc2)C[C@@H]2O[C@@H]21 (stereo partly drawn),inactive: -0.207%
16,CC(=O)c1ccc(N2CC2c2ccncc2)cc1 (stereo not drawn),inactive: -1.28%
17,CC(C)(C)C(=O)NC(Sc1ccccc1)C(Cl)(Cl)Cl (stereo not drawn),inactive: -0.928%
18,CCOc1ccc(C2=NCC(CBr)S2)cc1 (stereo not drawn),inactive: 1.12%
19,O=P1(Nc2nc3ccc(Cl)cc3s2)COc2ccccc2O1 (stereo not drawn),inactive: 0.666%
20,CCOP(=O)(Nc1cccc2ccccc12)OCC,inactive: -0.0828%
21,COc1cc(C2NCCC3(OCCO3)C2(C)C)cc(OC)c1OC (stereo not drawn),inactive: 0.0109%
22,Nc1cccc2c([As](=O)(O)O)cccc12,inactive: -0.266%
23,Cc1ccc(NCCc2c([N+](=O)[O-])cc([N+](=O)[O-])cc2[N+](=O)[O-])cc1,inactive: 0.883%
24,CCCOP(=S)(Nc1nc(N)cc(=O)[nH]1)OCCC,inactive: -0.971%
25,O=[As](O)(c1cccc(O)c1)c1cccc(O)c1,inactive: -0.456%

row,SMILES,activation
1,Cc1cccc(OCC(=O)OC2CN3CCC2CC3)c1 (stereo not drawn),inactive: -0.123%
2,O=C(OC1CN2CCC1CC2)c1ccc(Cl)cc1 (stereo not drawn),inactive: -0.654%
3,CS(=O)(=O)c1ccc(Cl)c(NC(=O)COC(=O)C(O)(c2ccccc2)c2ccccc2)c1,inactive: -0.396%
4,COc1cc(C(=O)NCC2(N3CCOCC3)CCCCC2)cc(Cl)c1OC(C)C,inactive: -0.0417%
5,O=[As](O)(O)c1cccnc1,inactive: -0.104%
6,CCOP1(=S)c2c(C)nn(CCC#N)c2N=C(c2ccc(F)cc2)N1C (stereo not drawn),inactive: -0.55%
7,CN(C(=O)Cc1ccccc1)[C@@H]1CC[C@]2(CCCO2)C[C@H]1N1CCCC1,inactive: -0.216%
8,N#CCCN(C(=O)COC(=O)C(O)(c1ccccc1)c1ccccc1)c1ccc(F)cc1,inactive: -0.841%
9,CN(C(=O)Cc1ccc(Cl)c(Cl)c1)[C@H]1CC[C@@]2(CCCO2)C[C@@H]1N1CCCC1,inactive: 0.49%
10,CN(C)C(=O)c1cc([N+](=O)[O-])cc2c1-c1c(cc([N+](=O)[O-])cc1[N+](=O)[O-])C2=O,inactive: -1.77%
11,O=[N+]([O-])c1ccc2c(c1)nnn2O,inactive: -0.842%
12,NC(=O)Nc1ccc([As](=O)(O)O)cc1,inactive: -1.37%
13,O=C(O)COc1ccc([As](=O)(O)O)cc1[N+](=O)[O-],inactive: -0.163%
14,Nc1ccccc1[As](=O)(O)c1ccccc1,inactive: 0.202%
15,O=P(Nc1nccs1)(c1ccccc1)c1nc2ccccc2s1 (stereo not drawn),inactive: -0.296%
16,O=P(Nc1nccs1)(Oc1ccccc1)Oc1ccccc1,inactive: -0.193%
17,CCOP1(=S)c2c(C)nn(CCC#N)c2N=C(c2ccccc2F)N1C (stereo not drawn),inactive: 0.00528%
18,CS(=O)(=O)c1cc([N+](=O)[O-])c2no[n+]([O-])c2c1,inactive: 1.65%
19,Nc1cccc([As](=O)(O)c2ccccc2)c1,inactive: -0.151%
20,O=P1(Nc2ccc(Br)cn2)COc2ccccc2OC1,inactive: -0.143%
21,O=[As](O)(c1cccs1)c1cccs1,inactive: -35.6%
22,Cc1ccc(OCC(=O)OC2CN3CCC2CC3)cc1 (stereo not drawn),inactive: -2.75%
23,O=P1(Nc2ncccn2)COc2ccccc2OC1,inactive: -0.223%
24,CN(C)C1(CNC(=O)c2ccc(S(C)(=O)=O)cc2)CCCCC1,inactive: -0.277%
25,O=C(/C=C/c1ccccc1)OC1CN2CCC1CC2 (stereo not drawn),inactive: 0.535%

row,SMILES,activation
1,Cc1ccc(C(=O)OC2CN3CCC2CC3)cc1 (stereo not drawn),inactive: -0.909%
2,CC1CCC(C(C)C)C(OP(=O)(Nc2ccccn2)c2ccccc2)C1 (stereo not drawn),inactive: -1.52%
3,Cc1nn(-c2ccccc2)c2c1P(=O)(N1CCOCC1)N(C)C(c1ccccc1)=N2 (stereo not drawn),inactive: -0.403%
4,CN(C(=O)Cc1ccc(Cl)c(Cl)c1)[C@@H]1CCCC[C@H]1N1CCCC1,inactive: -0.271%
5,CC(C)/C=N\N=C(\N)N[N+](=O)[O-],inactive: 0.754%
6,CC1(CBr)Cn2c(nc3ccccc3c2=O)S1 (stereo not drawn),inactive: -0.357%
7,O=[As](O)(c1ccccc1Br)c1ccccc1Br,inactive: -0.925%
8,COc1ccccc1CNC(=O)COC(=O)C(O)(c1ccccc1)c1ccccc1,inactive: -0.31%
9,CC(C)(C)C(=O)NC(Sc1ncccn1)C(Cl)(Cl)Cl (stereo not drawn),inactive: -0.174%
10,Clc1n[nH]nc1-c1nn[nH][15n]1,inactive: -0.0346%
11,CCOP(=O)(NC(=NC(C)c1ccccc1)NC(C)c1ccccc1)OCC (stereo not drawn),inactive: -0.542%
12,CCC1=CC2Cc3nc4ccc(Cl)cc4c(N)c3C(C1)C2 (stereo not drawn),inactive: -0.361%
13,O=P1(Nc2ccccn2)COc2ccccc2OC1,inactive: 0.402%
14,CN(CCCl)Cc1cc(Cl)c(NC2=NCCN2)c(Cl)c1,inactive: 0.18%
15,CCOP(=O)(Nc1ccc(C)cn1)OCC,inactive: -1.11%
16,CCC(C)N(CC(C)C)C(=S)SC(NC(C)=O)C(Cl)(Cl)Cl (stereo not drawn),inactive: -0.432%
17,O=C(OC1CN2CCC1CC2)c1cccc([N+](=O)[O-])c1 (stereo not drawn),inactive: 0.195%
18,CCOC(=O)c1ccc(NC(=O)C(C)(CCl)SC)cc1 (stereo not drawn),inactive: -0.232%
19,O=C(Nc1ccncc1[N+](=O)[O-])c1ccc([N+](=O)[O-])cc1[N+](=O)[O-],inactive: 1.76%
20,O=C(COc1ccccc1)OC1CN2CCC1CC2 (stereo not drawn),inactive: 0.136%
21,COP1(=S)c2c(C)nn(CCC#N)c2N=C(c2ccc(F)cc2)N1C (stereo not drawn),inactive: 0.116%
22,Cc1cc(SC(NC=O)C(Cl)(Cl)Cl)ncn1 (stereo not drawn),inactive: -0.43%
23,O=P(Nc1ccccn1)(c1cccc2ccccc12)c1cccc2ccccc12,inactive: -0.788%
